System: human umbilical vein endothelial cells (HUVECS)
Test: neutrophil rolling on endothelial cell monolayers under flow conditions (rolling index)
Assay type: cell-based
Conditions: HUVEC monolayers incubated in glycated serum protein for 4 hours, perfused with human neutrophils (FIG. 18, FIG. 19)
Protocol: Glycated serum proteins induce neutrophil rolling on endothelial cells in an in vitro assay of cell adhesion under flow conditions. Monolayers of human umbilical vein endothelial cells (HUVECS) were incubated in glycated serum proteins (FIG. 18, glycated albumin, Gly-HSA or FIG. 19, glycated hemoglobin, Gly-Hb) for 4 hours. Monolayers were then inserted into a flow chamber and the chamber was perfused with human neutrophils (10^6 cell/ml) at a flow rate corresponding to a wall shear stress of 0.9 dynes/cm^2. Digital images were acquired and analyzed to determine the rolling index (RI) which is a measure of the degree of neutrophil rolling on the endothelial cell monolayer. Glycated HSA yielded about a 6-fold increase in rolling while glycated hemoglobin yielded approximately a 2.8-fold increase. At 50 μM, about 90% of the cell rolling is inhibited by the test compound.

Substance: Glycated HSA: glycated human serum albumin used to stimulate endothelial cells
- increase in neutrophil rolling (rolling index): ~6 fold

— patent US8026222B2, “Methods of use of glycomimetics with replacements for hexoses and n-acetyl hexosamines” (GlycoMimetics, Inc., priority 2007, dated 2011)
